From US10941115B2, “Kinase inhibitors” (Oxular Acquisitions Limited, priority 2014, dated 2021)

System: non-mutant kinases
Assay type: binding
Conditions: 50 nM
Description: These assays may be conducted by DiscoverX (formerly Ambit; San Diego, Calif.).

COc1cc(Nc2cc(Oc3ccc(NC(=O)Nc4cc(C(C)(C)C)cc(NS(C)(=O)=O)c4OC)c4ccccc34)ccn2)ccc1P(C)(=O)O [Example 44, (4-((4-((4-(3-(5-(tert-Butyl)-2-methoxy-3-(methylsulfonamido)phenyl)ureido)naphthalen-1-yl)oxy)pyridin-2-yl)amino)-2-methoxyphenyl)(methyl)phosphinic acid]
KinomeScan Selectivity Score S(1) (fraction of non-mutant kinases with % Ctrl <1): 0.002
KinomeScan Selectivity Score S(10) (fraction of non-mutant kinases with % Ctrl <10): 0.074
